Measurements taken from patent US20230158154A1, “CONJUGATES COMPRISING A PHOSPHORUS (V) AND A CAMPTOTHECIN MOIETY” (priority 2021, published 2023).

Key:
[1] = system: Her2-positive target cells SKBR-3, SKOV-3 and N87; assay: Calcein release-based ADCC assay; format: cell-based; settings: NK cells, effector-to-target 3:1; compared to Enhertu
Description: For the Calcein release-based antibody-dependent cellular cytotoxicity (ADCC) assay, frozen primary healthy donor-derived natural killer (NK) cells, isolated from peripheral blood mononuclear cells (PBMCS) by negative selection, were purchased as effector cells (Lonza). Her2-positive target cells were stained with 16 μM Calcein AM (Thermo Fisher Scientific). […] Cells permeabilized with 2.5% Triton X (Sigma-Aldrich) served as positive control. Supernatants were transferred to a flat black non-binding 96-well plate (Greiner Bio-One) and fluorescence was measured at 485/535 nM via the Infinite M1000 Pro reader (Tecan).
The percent specific killing was calculated by dividing the Calcein released by antibody-mediated killing minus background Calcein release (NKs+targets) from Calcein released by Triton X-permeabilized cells (maximum killing) minus background Calcein release (targets only). We determined either maximum ADCC/specific killing at 15 μg/ml or generated a concentration-dependent killing curve that was analyzed by a non-linear regression using a one-site specific binding model.

SKOV-3 cells = assay: pHrodo-based internalization, Her2-positive cells; format: cell-based; settings: 5 μg/ml, 1 h, 5 h, 24 h
[2] = system: co-culture of SKBR-3 cells and MDA-MB-468 cells; assay: Co-culture-based bystander assay by FACS; format: cell-based; settings: 5:1 co-culture, 5 days; compared to Enhertu
Description: After 5 days incubation time, co-cultures were stained by αHer2-FITC (BioLegend) and Fixable Aqua Dead Cell Stain Kit (Thermo Fisher Scientific). As a readout for the bystander effect, the percentage of dead Her2-positive and -negative cells was determined by flow cytometry.

NCI-N87 cells = assay: NCI-N87 xenograft in CB17-Scid mice; format: in vivo
Description: All animal experiments were conducted in accordance with German animal welfare law and approved by local authorities. […] Treatment was initiated when tumours reached a mean tumour volume of 0.1-0.15 cm^3. […] Tumour volumes, body weights and general health conditions were recorded throughout the whole study.

MDA-MB-468 cells = settings: 5 μg/ml; compared to Enhertu
[3] = system: SKBR-3, N87, HCC-1569, HCC-78, OE-19, SK-GT-2 and SKOV-3; settings: compared to Enhertu; in particular cell lines not highly overexpressing Her2
[4] = system: Her2-negative cells Karpas-299 and DU-145; settings: compared to Enhertu
[5] = system: cultured cells of healthy human tissue; settings: all tested tissue types; compared to Enhertu

Substance: Trastuzumab-P5(PEG24)-VC-PAB-Exatecan DAR8: "ADC Trastuzumab-P5(PEG24)-VC-PAB-Exatecan having a drug to antibody ratio of 8 (denoted as "DAR8")"
- ADCC-effect (percent specific killing) [1]: better ADCC-effect
- internalization into targeted Her2 cells (SKOV-3 cells): similar
- bystander effect [2]: Slightly better bystander effect
- tumor response (NCI-N87 cells; 0.5 mg/kg once, initial 7 days): tumor regression
- tumor shrinkage compared to Enhertu (NCI-N87 cells; all treatment groups (0.25, 0.5, 1, 2 mg/kg once), initial period of 7 days): greater tumor shrinkage
- in vivo efficacy, expected outcome (NCI-N87 cells; study currently ongoing): same/comparable outcome
- undesired internalization into target negative cells (MDA-MB-468 cells): lower
- in vitro efficacy [3]: Better in vitro efficacy
- bystander effect [4]: Better bystander effect
- off-target toxicity [5]: less pronounced
